Laboratory results published in PMC5839545, “CENP-C/H/I/K/M/T/W/N/L and hMis12 but not CENP-S/X participate in complex formation in the nucleoplasm of living human interphase cells outside centromeres” (PLoS ONE, 2018).

T1: EGFP-(s)-CENP-T^∆N (human, UniProt Q96BT3 396-561)
T1 construct: CENP-T, human, C-terminal domain, aas 396-561, said to contain the histone-fold domain (aas 376-561); also called EGFP-(s)-CENP-T^396-561; source: HEK293 cells, transfected by electroporation, in living cells
T1 sequence (looked up): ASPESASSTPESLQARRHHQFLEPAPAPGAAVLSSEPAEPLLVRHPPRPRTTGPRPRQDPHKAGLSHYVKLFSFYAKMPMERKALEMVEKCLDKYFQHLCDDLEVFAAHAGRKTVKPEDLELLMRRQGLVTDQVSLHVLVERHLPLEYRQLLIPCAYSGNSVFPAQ

T2: mCherry-(s)-CENP-K (human, UniProt Q9BS16 1-269)
T2 construct: CENP-K, human; also called mCherry-CENP-K; source: HEp-2 or U2OS cells, transfected by electroporation, in living cells
T2 sequence (looked up): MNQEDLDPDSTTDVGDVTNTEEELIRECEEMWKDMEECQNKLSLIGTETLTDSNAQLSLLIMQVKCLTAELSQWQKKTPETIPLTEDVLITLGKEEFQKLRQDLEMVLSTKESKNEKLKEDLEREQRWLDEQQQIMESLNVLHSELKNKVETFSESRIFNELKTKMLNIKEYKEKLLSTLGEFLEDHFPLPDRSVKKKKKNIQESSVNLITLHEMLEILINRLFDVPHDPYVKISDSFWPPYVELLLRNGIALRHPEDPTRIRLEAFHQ

T3: mCherry-(l)-CENP-S (human, UniProt Q8N2Z9 1-138)
T3 construct: CENP-S, human; source: HEp-2 or U2OS cells, transfected by electroporation, in living cells; not shown: mCherry (long linker [residues removed]), N-terminal, kept
T3 sequence (looked up): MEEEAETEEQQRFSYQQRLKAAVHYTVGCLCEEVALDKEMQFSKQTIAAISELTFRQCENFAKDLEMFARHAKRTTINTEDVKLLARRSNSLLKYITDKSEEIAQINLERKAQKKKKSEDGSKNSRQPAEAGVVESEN

B1: EGFP-(s)-CENP-M (natural protein, human, UniProt Q9NSP4 1-180, looked up)
chain: MSVLRPLDKLPGLNTATILLVGTEDALLQQLADSMLKEDCASELKVHLAKSLPLPSSVNRPRIDLIVFVVNLHSKYSLQNTEESLRHVDASFFLGKVCFLATGAGRESHCSIHRHTVVKLAHTYQSPLLYCDLEVEGFRATMAQRLVRVLQICAGHVPGVSALNLLSLLRSSEGPSLEDL
notes: CENP-M, human; source: HEp-2 or U2OS cells, transfected by electroporation, in living cells
B2: EGFP-(s)-CENP-W (natural protein, human, UniProt Q5EE01 1-88, looked up)
chain: MALSTIVSQRKQIKRKAPRGFLKRVFKRKKPQLRLEKSGDLLVHLNCLLFVHRLAEESRTNACASKCRVINKEHVLAAAKVILKKSRG
notes: CENP-W, human; source: HEK293 cells, transfected by electroporation, in living cells
B3: mCherry-(s)-CENP-W (natural protein, human, UniProt Q5EE01 1-88, looked up)
chain: B2 chain
notes: CENP-W, human; source: HEp-2 or U2OS cells (DC-FCCS) and HEK293 cells (SW-FCCS), transfected by electroporation, in living cells
B4: EGFP-(s)-CENP-S (natural protein, human, UniProt Q8N2Z9 1-138, looked up)
chain: T3 sequence (looked up)
notes: CENP-S, human; source: HEK293 cells, transfected by electroporation, in living cells
B5: CENP-T-(s)-EGFP (natural protein, human)
chain: MADHNPDSDSTPRTLLRRVLDTADPRTPRRPRSARAGARRALLETASPRKLSGQTRTIARGRSHGARSVGRSAHIQASGHLEEQTPRTLLKNILLTAPESSILMPESVVKPVPAPQAVQPSRQESSCGSLELQLPELEPPTTLAPGLLAPGRRKQRLRLSVFQQGVDQGLSLSQEPQGNADAS[about 40 residues not printed]AVDVGAFLRDLRDTSLAPPNIVLEDTQPFSQPMVGSPNVYHSLPCTPHTGAEDAEQAAGRKTQSSGPGLQKNSPGKPAQFLAGEAEEVNAFALGFLSTSSGVSGEDEVEPLHDGVEEAEKKMEEEGVSVSEMEATGAQGPSRVEEAEGHTEVTEAEGSQGTAEADGPGASSGDEDASGRAASPESASSTPESLQARRHHQFLEPAPAPGAAVLSSEPAEPLLVRHPPRPRTTGPRPRQDPHKAGLSHYVKLFSFYAKMPMERKALEMVEKCLDKYFQHLCDDLEVFAAHAGRKTVKPEDLELLMRRQGLVTDQVSLHVLVERHLPLEYRQLLIPCAYSGNSVFPAQ
notes: CENP-T, human; source: HEp-2 or U2OS cells, transfected by electroporation, in living cells; not shown: EGFP (short linker)
B6: EGFP-(s)-CENP-H (natural protein, human, UniProt Q9H3R5 1-247, looked up)
chain: MEEQPQMQDADEPADSGGEGRAGGPPQVAGAQAACSEDRMTLLLRLRAQTKQQLLEYKSMVDASEEKTPEQIMQEKQIEAKIEDLENEIEEVKVAFEIKKLALDRMRLSTALKKNLEKISRQSSVLMDNMKHLLELNKLIMKSQQESWDLEEKLLDIRKKRLQLKQASESKLLEIQTEKNKQKIDLDSMENSERIKIIRQNLQMEIKITTVIQHVFQNLILGSKVNWAEDPALKEIVLQLEKNVDMM
notes: CENP-H, human; source: HEp-2 or U2OS cells, transfected by electroporation, in living cells
B7: CENP-K-(s)-EGFP (natural protein, human, UniProt Q9BS16 1-269, looked up)
chain: T2 sequence (looked up)
notes: CENP-K, human; source: HEp-2 or U2OS cells, transfected by electroporation, in living cells; not shown: EGFP (short linker)
B8: EGFP-(s)-CENP-X (natural protein, human, UniProt A8MT69 1-81, looked up)
chain: MEGAGAGSGFRKELVSRLLHLHFKDDKTKVSGDALQLMVELLKVFVVEAAVRGVRQAQAEDALRVDVDQLEKVLPQLLLDF
notes: CENP-X, human; source: HEp-2 or U2OS cells (DC-FCCS) and HEK293 cells (SW-FCCS), transfected by electroporation, in living cells
B9: mCherry-(s)-CENP-X (natural protein, human, UniProt A8MT69 1-81, looked up)
chain: B8 chain
notes: as for B8
B10: EGFP-(l)-CENP-L (natural protein, human, UniProt Q8N0S6 1-344, looked up)
chain: MDSYSAPESTPSASSRPEDYFIGATPLQKRLESVRKQSSFILTPPRRKIPQCSQLQEDVDPQKVAFLLHKQWTLYSLTPLYKFSYSNLKEYSRLLNAFIVAEKQKGLAVEVGEDFNIKVIFSTLLGMKGTQRDPEAFLVQIVSKSQLPSENREGKVLWTGWFCCVFGDSLLETVSEDFTCLPLFLANGAESNTAIIGTWFQKTFDCYFSPLAINAFNLSWMAAMWTACKMDHYVATTEFLWSVPCSPQSLDISFAIHPEDAKALWDSVHKTPGEVTQEEVDLFMDCLYSHFHRHFKIHLSATRLVRVSTSVASAHTDGKIKILCHKYLIGVLAYLTELAIFQIE
notes: CENP-L, human; source: HEp-2 or U2OS cells, transfected by electroporation, in living cells; not shown: EGFP (long linker [residues removed]), N-terminal, kept

How the values were obtained:
Conditions in all cases: partners not purified
CENP-T-(s)-mCherry = molecular target: T4, CENP-T-(s)-mCherry (human, UniProt Q96BT3); assay: dual color fluorescence cross-correlation spectroscopy (DC-FCCS); EGFP and mCherry fusion proteins co-expressed in living interphase HEp-2 or U2OS cells; spots in the nucleoplasm free of kinetochores, focal volume bleached before; 37°C; 488 and 561 nm; corrected values are the measured ones times about two
T4 construct: CENP-T, human; called full-length CENP-T against its N-terminal domain; source: HEp-2 or U2OS cells, transfected by electroporation, in living cells; not shown: mCherry (short linker)

mCherry-(s)-CENP-T = molecular target: T5, mCherry-(s)-CENP-T (human, UniProt Q96BT3); assay: single-wavelength fluorescence cross-correlation spectroscopy (SW-FCCS); EGFP and mCherry fusion proteins co-expressed in living interphase HEK293 cells; nucleoplasm; 37°C; 514 nm; effective (apparent) Kd from scatter plot (S) or histogram (H), corrected for non-fluorescent mCherry and observation volumes
T5 construct: CENP-T, human; called wildtype against CENP-T^∆N; source: HEp-2 or U2OS cells (DC-FCCS) and HEK293 cells (SW-FCCS), transfected by electroporation, in living cells

EGFP-(s)-CENP-T^∆N = molecular target: T1, EGFP-(s)-CENP-T^∆N; assay: as above
mCherry-(s)-CENP-X = molecular target: B9; assay: as above
mCherry-(s)-CENP-W = molecular target: B3; assay: dual color fluorescence cross-correlation spectroscopy (DC-FCCS); EGFP and mCherry fusion proteins co-expressed in living interphase HEp-2 or U2OS cells; spots in the nucleoplasm free of kinetochores, focal volume bleached before; 37°C; 488 and 561 nm; corrected values are the measured ones times about two
mCherry-(s)-CENP-K = molecular target: T2, mCherry-(s)-CENP-K; assay: as above
CENP-C-(s)-mCherry = molecular target: T6, CENP-C-(s)-mCherry (human); assay: as above
T6 construct: CENP-C, human; source: HEp-2 or U2OS cells, transfected by electroporation, in living cells; not shown: mCherry (short linker)

mCherry-(s)-CENP-C = molecular target: T7, mCherry-(s)-CENP-C (human); assay: as above
T7 construct: CENP-C, human; source: HEp-2 or U2OS cells, transfected by electroporation, in living cells

mCherry-(l)-CENP-S = molecular target: T3, mCherry-(l)-CENP-S; assay: as above
EGFP-(s)-CENP-S = molecular target: B4; assay: single-wavelength fluorescence cross-correlation spectroscopy (SW-FCCS); EGFP and mCherry fusion proteins co-expressed in living interphase HEK293 cells; nucleoplasm; 37°C; 514 nm; effective (apparent) Kd from scatter plot (S) or histogram (H), corrected for non-fluorescent mCherry and observation volumes

Binder: B1
- cross-correlation, measured (%) (CENP-T-(s)-mCherry): 13%

Binder: B2
- Kd (mCherry-(s)-CENP-T): 538 nM and 340 nM
- Kd, uncorrected (mCherry-(s)-CENP-T): 1500 nM and 626 nM
- dimer, corrected (%) (mCherry-(s)-CENP-T): 51%
- dimer, uncorrected (%) (mCherry-(s)-CENP-T): 35.4%

Binder: B3
- Kd (EGFP-(s)-CENP-T^∆N): 1300 nM and 944 nM

Binder: B4
- dimer, corrected (%) (mCherry-(s)-CENP-X): 58%
- dimer, uncorrected (%) (mCherry-(s)-CENP-X): 41.6%

Binder: B5
- cross-correlation, measured (%) (mCherry-(s)-CENP-W): 28%

Binder: B6
- cross-correlation, measured (%) (mCherry-(s)-CENP-K): 31%
- cross-correlation, measured (%) (CENP-C-(s)-mCherry): 18%
- cross-correlation, measured (%) (mCherry-(s)-CENP-C): 26%

Binder: B7
- cross-correlation, measured (%) (CENP-T-(s)-mCherry): 31%

Binder: B8
- cross-correlation, measured (%) (mCherry-(l)-CENP-S): 31%

Binder: B9
- Kd (EGFP-(s)-CENP-S): 264 nM and 287 nM

Binder: B10
- cross-correlation, measured (%) (mCherry-(s)-CENP-K): 18%

Several values for one entry are separate records, joined by “and”; a condition that tells them apart may be missing. Identical values can stand only once.
